Laboratory results from ChEMBL document CHEMBL1143172, “Profiling Protein Arginine Deiminase 4 (PAD4): a novel screen to identify PAD4 inhibitors” (Bioorg Med Chem, 2008).

Amino acid sequences for entries named in this document (tags omitted).
UniProt Q9UM07, whole entry: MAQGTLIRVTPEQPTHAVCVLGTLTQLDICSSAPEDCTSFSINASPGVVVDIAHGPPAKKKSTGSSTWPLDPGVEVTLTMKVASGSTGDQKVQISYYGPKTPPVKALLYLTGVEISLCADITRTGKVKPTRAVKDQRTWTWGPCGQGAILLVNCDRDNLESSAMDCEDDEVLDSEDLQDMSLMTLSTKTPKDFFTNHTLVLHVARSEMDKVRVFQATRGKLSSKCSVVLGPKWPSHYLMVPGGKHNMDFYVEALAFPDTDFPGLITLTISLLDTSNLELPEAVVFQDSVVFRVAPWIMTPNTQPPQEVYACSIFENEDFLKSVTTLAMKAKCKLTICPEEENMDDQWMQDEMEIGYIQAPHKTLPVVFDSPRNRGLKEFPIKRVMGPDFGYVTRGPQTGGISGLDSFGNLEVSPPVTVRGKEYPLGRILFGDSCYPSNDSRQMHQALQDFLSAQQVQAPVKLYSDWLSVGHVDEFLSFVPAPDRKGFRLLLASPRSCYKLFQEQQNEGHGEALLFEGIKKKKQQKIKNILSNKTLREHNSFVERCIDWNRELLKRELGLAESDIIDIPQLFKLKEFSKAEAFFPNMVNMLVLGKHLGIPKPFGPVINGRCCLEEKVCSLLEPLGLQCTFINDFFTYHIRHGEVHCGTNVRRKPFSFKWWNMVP

Molecular target: Protein-arginine deiminase type-4 (Homo sapiens, UniProt Q9UM07)
Test: Inhibition of PAD4 measured by intercept plot of Lineweaver-Burke analyses

Ki: 630 µM
SMILES: C[C@H]1c2cccc(O)c2C(=O)C2=C(O)C3(O)C(=O)C(C(N)=O)=C(O)[C@@H](N(C)C)[C@@H]3[C@@H](O)[C@@H]21 (single isomer, unassigned) [DOXYCYCLINE]
